The logP is a log measure of how a compound divides between an organic and an aqueous phase. A low value points to lower lipophilicity.

This passage reports logP results from the OPERA property sets (Mansouri et al. 2018).

For the data set the following is noted: experimental values compiled from the literature.

Compound `O=[N+]([O-])OC1CCCCC1O[N+](=O)[O-]` (stereo not given) gave a logP of 2.62.
With `O=[N+]([O-])OCCCCCCCCCCO[N+](=O)[O-]` the figure was 5.56; with `O=[N+]([O-])OCCCO[N+](=O)[O-]`, 1.68.
With `CC(CCCCO[N+](=O)[O-])O[N+](=O)[O-]` (stereo not given) the figure was 3.25.
Then `CC(CCC(C)O[N+](=O)[O-])O[N+](=O)[O-]` (stereo not given), with 3.09; and `O=[N+]([O-])OC1CCCCCC1O[N+](=O)[O-]` (stereo not given), with 3.41; and `O=[N+]([O-])OC1CCCC(O[N+](=O)[O-])C1` (stereo not given), with 2.89.
For `CCN(C)CCO`, the logP came out at 0.08.
Then `CCCN(C)CCO`, with 0.65; and `O=[N+]([O-])OCCCCCO[N+](=O)[O-]`, with 2.64; and `CC(CCO[N+](=O)[O-])O[N+](=O)[O-]` (stereo not given), with 2.15.
Then `CCCCC(CO[N+](=O)[O-])O[N+](=O)[O-]` (stereo not given), with 3.51.
Turning to `O=[N+]([O-])OCCCCCCCO[N+](=O)[O-]`, the logP turned out to be 3.81.
Then `CCC(CO[N+](=O)[O-])O[N+](=O)[O-]` (stereo not given), with 2.36; and `[N-]=[N+]=NC=Cc1ccc([N+](=O)[O-])o1`, with 2.06.
As to `O=[N+]([O-])c1cccc(O)c1[N+](=O)[O-]`, the logP was found to be 2.08.
With `O=[N+]([O-])OCCCCCCO[N+](=O)[O-]` the figure was 3.19; with `O=[N+]([O-])OCCCCO[N+](=O)[O-]`, 2.17.
Then `CC(CCCO[N+](=O)[O-])O[N+](=O)[O-]` (stereo not given), with 2.88; and `CC(CC(C)O[N+](=O)[O-])O[N+](=O)[O-]` (stereo not given), with 2.75.
